Chains of the proteins cited; added tags and fusions are not shown.
ATP-dependent Clp protease proteolytic subunit (Bacillus subtilis (strain 168)), P80244, UniProt P80244, whole entry, looked up: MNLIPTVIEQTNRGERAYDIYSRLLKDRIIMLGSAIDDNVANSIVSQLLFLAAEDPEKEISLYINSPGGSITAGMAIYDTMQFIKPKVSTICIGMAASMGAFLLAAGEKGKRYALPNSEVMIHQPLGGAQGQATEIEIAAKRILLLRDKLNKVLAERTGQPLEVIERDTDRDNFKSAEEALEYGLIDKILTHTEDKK

# TrxR1 substrate: is turned over as a substrate by rat TrxR1; O89049; purified TrxR1 substrate turnover, NADPH consumption readout; Potency, µM (doses to about 114 µM), without a hit: at the top dose activity change, negative = substrate turnover; 0.01% of 390,000 active; further: potency means the concentration at half of the fitted maximal effect; on the % scale 0 is the no-effect control and ±100 the full control effect; nearly all actives have a fitted effect of over 50% in size
#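 Rat TrxR1, dispensed at 90 nM, was prereduced with 400 uM NADPH (final) for 5 min at ~22 deg C, then incubated with compound 15 min before 400 uM selenite. A first-read NADPH fluorescence drop versus no-compound background flagged substrates.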
# miR-21 reporter: raises the signal of a miR-21 reporter | Potency, µM (doses to about 38.3 µM), for inactives: top-dose reporter change, positive = more light | HeLa miR-21 FLuc reporter, luciferase, 48 h | AID 2288 | 340,000 tested, under 10 active; active = well fitted rising curve with a large enough effect; inconclusive = small, poorly fitted or top-dose-only effect; inactive = no such curve, though single readings can be large or run the other way;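 also: % of control where 0% means no effect; miR-21 action dims this reporter so a rising signal means less miR-21 action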
#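 HeLa cells stably expressing CMV-driven firefly luciferase with a downstream miR-21 binding sequence, endogenously expressing miR-21, were treated with titrations (up to about 40uM final) for 48 hours at 37 degree Celsius. Luciferase luminescence was read after lysis.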
# rTrxR1 inhibitor: rat TrxR1 inhibition. O89049. recombinant rTrxR1, NADPH fluorescence consumption, selenite substrate. Potency, µM (titrated, usually from 114 µM), without a hit: top-dose activity change, negative = inhibition, actives largely listed as inhibitors. 1% of 390,000 active; further: potency means the concentration at half of the fitted maximal effect; on the % scale 0 is the no-effect control and ±100 the full control effect; nearly all actives have a fitted effect of over 65% in size
#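 Rat TrxR1 (90 nM in the dispensed reagent) was pre-reduced with 400 uM NADPH for 5 min at room temperature, then incubated with compound for 15 min. After 400 uM selenite was added, NADPH fluorescence (Ex 340/Em 450 nm) was followed for 8 min.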
# Apoferritin bind: candidate novel general anesthetic via apoferritin binding; apoferritin/1-aminoanthracene competitive binding, fluorescence; Potency, µM (series often up to 77.5 µM), inactives show top-dose activity change, negative = displacement, usual class: inhibitors; 0.074% of 350,000 active; P02791; AID 485281; further: potency means the concentration at half of the fitted maximal effect; on the % scale 0 is the no-effect control and ±100 the full control effect; nearly all actives have a fitted effect of over 20% in size
#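 Horse-spleen apoferritin (10 uM) in 50% saturated 1-aminoanthracene in PBS was incubated 10 min at room temperature with compound. Fluorescence (ex 380, em 535 nm) was normalized to free and bound 1-AMA, with concentration-response fitted by a four-parameter Hill equation.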
# ClpP mod: qHTS Assay for Activators of ClpP. Potency, µM (series often up to 57.5 µM), inactives show top-dose activity change, negative = active. 1.9% of 340,000 active. purified B. subtilis ClpP, FRET peptide cleavage, 20 min. AID 651965, 2013. ATP-dependent Clp protease proteolytic subunit (Bacillus subtilis (strain 168)), P80244; active means well fitted falling curve with a large enough effect; inconclusive means small, poorly fitted or top-dose-only effect; inactive means no such curve, though single readings can be large or run the other way; further: potency means the concentration at half of the fitted maximal effect; the source files actives as falling curves though it sought activators and does not explain the sign; nearly all actives have a fitted effect of over 65% in size
#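 FRET quenching reversal measured ClpP activation: 10 microg/mL B. subtilis ClpP at pH 8 with the FRET-FV decapeptide, read at 430 nm after 320 nm excitation. The 20-min minus 0-min signal was scaled between DMSO/no-enzyme wells and ADEP (5.8 microM final).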
# ClpP inh valid: validation of B. subtilis ClpP protease hits (inhibitors) | shares compounds with ClpP mod | purified B. subtilis ClpP, FRET-FV substrate cleavage, 20 min | Potency, µM (highest dose often 57.5 µM), for the others: at the top dose activity change, negative = inhibition, hits mostly inhibitors | 40% of 470 active | AID 743245; further: potency means the concentration at half of the fitted maximal effect; on the % scale 0 is the no-effect control and ±100 the full control effect; nearly all actives have a fitted effect of over 70% in size
# * = called active by the depositor; ? = inconclusive; . = no result given; [ ] = dose if it differs, or a comment. In the library only some 2.5% were active in any assay of this set; here they are far more common. Unless noted, the call rests on the fitted dose curve; in most records, active means well fitted curve in the direction sought with a large enough effect; inconclusive means small, poorly fitted or top-dose-only effect, or another doubt; inactive means no such curve, though single readings can be large; an effect the other way counts as inactive or inconclusive.
# Sequence of screens – Apoferritin bind, miR-21 reporter, TrxR1 substrate, ClpP mod, ClpP inh valid, rTrxR1 inhibitor
> CNc1ccc2oc(C[C@H]3O[C@@]4(CC[C@H]3C)O[C@H]([C@H](C)C(=O)c3ccc[nH]3)[C@H](C)C[C@H]4C)nc2c1C(=O)O
 : -12.6%, ?, 73.3%[57.1 µM], 4.6%, 27.3µM*, 17.5%[57.1 µM]
> Oc1cc2c(cc1CN1CCN(c3ccccc3F)CC1)OCO2
 : -11.6%, -8.1%, -5.7%[57.1 µM], ., ., ?
> CCCCC(=O)Nc1c(C(=O)N2CCN(c3ccccc3F)CC2)oc2ccccc12
 : 2.6%, 20.9%, -3.2%, 1.26µM*, -2.0%, 15.1%
> Cc1ccccc1C(=O)Nc1cc(-c2ccc(Cl)cc2)nn1-c1ccccc1
 : -7.3%, -14.0%, -2.3%[57.1 µM], 144.9%, -28.9%, 7.0%[57.1 µM]
> O=C(Nc1ccccc1-c1ccc(Cl)cc1)c1cccnc1Cl
 : -5.3%, ., ., ., ., .
> CSc1cccc(NC(=O)C2CCN(C(=O)c3cnn(-c4ccccc4)c3-n3cccc3)CC2)c1
 : -1.0%, ?, -2.8%, -3.8%, ., 2.1%
> CCOC(=O)N(C)C(=O)CSP(=S)(OCC)OCC
 : -10.4%, ., ., ., ., .
> CCCNC(=O)c1cnn2c(C)c(Cc3c(C)cc(C)cc3C)c(C)nc12
 : ?, 20.1%, 11.5%[57.1 µM], 10µM*, -1.1%, 17.9%[57.1 µM]

# Copied from the list.
# `Oc1cc2c(cc1CN1CCN(c3ccccc3F)CC1)OCO2` | Apoferritin bind: -11.6%
# `Cc1ccccc1C(=O)Nc1cc(-c2ccc(Cl)cc2)nn1-c1ccccc1` | rTrxR1 inhibitor: 7.0%[57.1 µM]

# Complete entries as entered above.
# Profile of CCOC(=O)N(C)C(=O)CSP(=S)(OCC)OCC : Apoferritin bind = -10.4%; miR-21 reporter = .; TrxR1 substrate = .; ClpP mod = .; ClpP inh valid = .; rTrxR1 inhibitor = .
# Profile of Oc1cc2c(cc1CN1CCN(c3ccccc3F)CC1)OCO2 : Apoferritin bind = -11.6%; miR-21 reporter = -8.1%; TrxR1 substrate = -5.7%[57.1 µM]; ClpP mod = .; ClpP inh valid = .; rTrxR1 inhibitor = ?
